Consider one substance from publication PMC3293801, “Differential Contribution of the Repeats to Heparin Binding of HBHA, a Major Adhesin of Mycobacterium tuberculosis” (PLoS ONE, 2012).

Protein sequences, listed by entry. Tags and fused reporters are not part of them. Residues count along the entry.
UniProt G3K533, 1-205: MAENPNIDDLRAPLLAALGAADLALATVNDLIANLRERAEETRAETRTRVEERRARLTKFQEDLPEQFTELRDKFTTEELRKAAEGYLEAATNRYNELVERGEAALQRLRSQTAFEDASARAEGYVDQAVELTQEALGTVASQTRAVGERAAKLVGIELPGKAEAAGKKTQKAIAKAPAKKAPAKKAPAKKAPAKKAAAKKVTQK

The target in the test is Maa HBHA (Mycobacterium avium, UniProt G3K533).

As usually defined, the Kd is the constant that tells how readily two partners part at equilibrium. In turn, dp14 heparin-derived oligosaccharide came in with a Kd of 47 ± 8 µM.
